Reference: patent EP0637247B1, “TREATMENT OF HERPESVIRUS INFECTION” (priority 1992, dated 1993)

Conditions: mice, 14C-labelled compound
Description: Counts were measured and used to calculate the amount and concentration of drug in each organ.

N-α-[^14C-acetyl]-nona-D-arginine amide acetate
distribution of drug to tissues (i.v. (tail vein) and s.c. (abdomen) injection, scintillation counting of organs): rapid distribution of drug to tissues
organs with highest and most prolonged levels (i.v. and s.c. injection): liver, followed by the kidneys and spleen
